Series [1] can be described thus: Stability analysis: mobility of initiator compound from cured print into analog solutions, by HPLC. The format is physicochemical. The conditions noted are these: 40° C. for 10 days, calculated for 1 kg of food per 600 cm^2 printing area.
Series [2] is described as follows: Solubility of solid photoinitiator in liquid polymerized monomer (HDDA or TPGDA). The conditions noted are these: dissolved at 50-60° C., stored at room temperature.

As for “2-methyl-1-[4-methylthiophenyl]-2-morpholinyl-1-acetone”, the Mobility was 4000 µg/kg in series [1] (3% acetic acid) and 1000 µg/kg in series [1] (Water). Moreover, the Solubility in series [2] (Polymerized monomer 1: HDDA) is recorded as 35 % (mass fraction); in series [2] (Polymerized monomer 2: TPGDA), 22 % (mass fraction).

The values above are taken from patent US11560362B2, “Dibutylfluorene derivative and application thereof as photoinitiator” (HUI ZHOU HUAHONG NEW MATERIAL CO., LTD., priority 2017, dated 2023).
